Assay results reported in PubChem BioAssay AID1012 (Sanford-Burnham Center for Chemical Genomics, 2008).
The list shows a part of the results, in another mix than the full data. Calls of active or inactive are those of the source.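 Rule for the calls: active = tissue-nonspecific alkaline phosphatase inhibition above about 50% at 20 µM in the single-dose screen (limit read from the data); inactive = the rest.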

Chains of the proteins cited; added tags and fusions are not shown.
UniProt P05186, whole entry: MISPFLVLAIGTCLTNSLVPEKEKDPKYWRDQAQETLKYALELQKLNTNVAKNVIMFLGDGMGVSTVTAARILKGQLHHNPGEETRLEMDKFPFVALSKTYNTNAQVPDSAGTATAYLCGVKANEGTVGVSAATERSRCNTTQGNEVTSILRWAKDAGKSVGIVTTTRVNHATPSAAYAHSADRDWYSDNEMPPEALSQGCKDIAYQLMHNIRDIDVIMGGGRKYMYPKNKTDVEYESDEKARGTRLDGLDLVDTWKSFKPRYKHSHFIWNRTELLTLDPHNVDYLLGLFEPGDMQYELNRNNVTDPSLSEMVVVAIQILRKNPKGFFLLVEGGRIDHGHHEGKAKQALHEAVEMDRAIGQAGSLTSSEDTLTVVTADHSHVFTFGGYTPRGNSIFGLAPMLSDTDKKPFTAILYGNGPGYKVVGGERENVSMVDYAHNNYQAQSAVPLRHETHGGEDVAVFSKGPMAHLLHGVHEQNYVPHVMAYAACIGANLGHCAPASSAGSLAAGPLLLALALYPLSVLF

Target: Alkaline phosphatase, tissue-nonspecific isozyme (Homo sapiens) (UniProt P05186)
Test: blockers of alkaline phosphatase TNAP activity – biochemical, luminescent, no phosphate acceptor, uHTS, primary screen (AID 1012);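 note: 0% = DMSO negative control and 100% = EDTA positive control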
Details: purified TNAP, CDP-star luminescence, 30 min; at 20 µM; stronger effect = higher value

Structure (SMILES) | inhibition
COc1ccc(CN(CCCl)CCCl)cc1Cl | inactive: -0.9%
CN(C)c1cccc(C(=O)NCC2(N3CCCCC3)CCCCC2)c1 | inactive: -5.9%
CC(C)c1ccc(NC2CCN(C(=O)OC(C)(C)C)CC2)cc1 | inactive: -11.9%
O=C(NCC1(N2CCCCC2)CCCCC1)c1cccc([N+](=O)[O-])c1 | inactive: -5.3%
N#CC1(Nc2ccccc2)CCN(CCc2ccccc2)CC1 | inactive: -13.4%
COc1ccc(NC2CCN(C(=O)OC(C)(C)C)CC2)cc1 | inactive: -4.9%
CN1CCN(CCOC(=O)C(O)(c2ccccc2)c2ccccc2)CC1 | inactive: 0.8%
O=C(NCC1(N2CCOCC2)CCCCC1)c1cc(=O)[nH]c2ccccc12 | inactive: -10.8%
COc1ccc(NC2CCN(CCc3ccccc3)CC2)c(OC)c1 | inactive: -6.8%
COc1ccc(C(=O)NCC2(N3CCCCC3)CCCCC2)c(OC)c1OC | inactive: -9.9%
CCOC(=O)N1CCC(Nc2ccc(OC)cc2)CC1 | inactive: -3.6%
O=C(OC1CN2CCC1CC2)C1c2ccccc2Oc2ccccc21 (stereo not given) | inactive: -5.2%
O=C(NCC1(N2CCOCC2)CCCCC1)c1cc2ccccc2o1 | inactive: -4.8%
CC(C)(C)OC(=O)N1CCC(Nc2ccccc2)CC1 | inactive: -9.9%
CCOc1ncccc1C(=O)NCC1(N2CCOCC2)CCCCC1 | inactive: -5.8%
CCC(CO)(C(=O)OC1CN2CCC1CC2)c1ccccc1 (stereo not given) | inactive: -4.7%
COc1cc(OC)cc(C(=O)NCC2(N3CCOCC3)CCCCC2)c1 | inactive: -7.8%
Fc1ccccc1NC1CCN(Cc2ccccc2)CC1 | inactive: -5.2%
CN(C)c1ccc(C(=O)NCC2(N3CCCCC3)CCCCC2)cc1 | inactive: -13.6%
CCN1CCC(Nc2cccc(F)c2)CC1 | inactive: -8.1%
N#Cc1ccc(C(=O)NCC2(N3CCCCC3)CCCCC2)cc1 | inactive: -0.3%
c1ccc(CN2CCC(Nc3ccccc3)CC2)cc1 | inactive: -9.1%
COc1ccc(C(=O)NCC2(N3CCOCC3)CCCCC2)cc1OC | inactive: -11.9%
O=C(OC1CN2CCC1CC2)C1c2ccccc2C=Cc2ccccc21 (stereo not given) | inactive: -0.9%
N/C(=N\O)c1c(N)no[n+]1[O-] | inactive: -16.4%
